Experimental data: paper PMC3994145

The chains behind the UniProt entries cited, without tags or fusion partners. Residues count along the entry.
UniProt P12318, 34-317: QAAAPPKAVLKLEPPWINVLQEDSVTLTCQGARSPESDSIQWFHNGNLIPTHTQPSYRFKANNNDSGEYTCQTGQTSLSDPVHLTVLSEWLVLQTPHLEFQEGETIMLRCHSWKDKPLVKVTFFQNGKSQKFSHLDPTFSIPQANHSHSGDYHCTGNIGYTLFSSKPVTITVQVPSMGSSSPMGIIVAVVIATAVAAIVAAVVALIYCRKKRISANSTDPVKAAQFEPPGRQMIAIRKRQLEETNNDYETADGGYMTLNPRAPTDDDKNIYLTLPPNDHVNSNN

Target: human FcγRIIa/131H on Jurkat cells (human) (UniProt P12318)

Substance: rituximab (wild-type, anti-CD20 mAb, IgG1) (antibody)
- EC50 of luciferase activity of Jurkat/FcγRIIa/NFAT-Luc cells co-cultured with Daudi cells and serially diluted mAb: 0.094 µg/mL
